# Apparent affinities of Ab-14 variants for a coronavirus HR2 peptide

Reference: Li et al. 2023, doi:10.1038/s41467-023-39022-2. File: FLAb, binding data.

The target is the same throughout: PDVDLGDISGINAS, from the HR2 region of SARS-CoV-2 spike.

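These sequences belong to a second round, designed from the earlier measurements on random variants of the parent. Their group label is 14L_En_Gen (En: ensemble of fine-tuned language models; Gen: genetic algorithm). Affinity was read by AlphaSeq, a pooled yeast mating assay with surface-displayed partners. Binding brings cells together so that they mate, and sequencing counts the barcode pairs among the diploids. Read counts were normalised to the haploid input and turned into Kd by a linear fit to BCL2-family pairs of known affinity, for each replicate. There are six technical replicates.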

Each scFv is VH, a (GGGGS)3 linker, VL, as in the parent Ab-14, and differs from it in the CDRs of the light chain only.
VH: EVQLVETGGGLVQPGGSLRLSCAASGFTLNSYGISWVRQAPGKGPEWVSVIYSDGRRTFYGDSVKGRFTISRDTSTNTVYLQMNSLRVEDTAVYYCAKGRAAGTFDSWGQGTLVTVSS
VL: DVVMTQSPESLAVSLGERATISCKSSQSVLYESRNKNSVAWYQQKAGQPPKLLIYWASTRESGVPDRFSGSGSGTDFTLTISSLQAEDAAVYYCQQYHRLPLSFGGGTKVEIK

The parent's light chain CDRs are KSSQSVLYESRNKNSVA, WASTRES, QQYHRLPLS; each variant's own CDRs replace them letter for letter.
Numbers give log10(Kd / nM), so 0 is 1 nM and 3 is 1 µM. Smaller is tighter.
An entry "n.d." has no value in the source: the pair was not observed among the diploids in that replicate. This suggests poor binding but is not conclusive.
A sequence measured in both rounds can read differently, since the two assays cover different ranges.
Background: pairings of all light chain designs with three empty control strains gave a value in 4% of cases (median 2.64, 5th percentile 1.59). Values in that range, when seen in few replicates, are hard to tell from nonspecific mating. For each scFv, signals with the empty controls are counted beside the result, with their mean in brackets.
The parent sequence was in this pool as ten entries: three were never detected, three once, and four in most replicates, with averages from 0.34 to 2.37.
In the paper, a design with two or fewer of six values counts as a poor binder.

CDR-L1,CDR-L2,CDR-L3,log10 Kd (nM) by replicate,control signals
IIAQLMYWGNKSANSIA,QASQRLN,QQYHHLPLT,n.d. 1.80 2.29 n.d. 1.86 1.48,0 of 18
KITATMRFEQKNSNNIA,EVTLRSN,QQYYRLPLS,1.03 0.80 0.54 0.61 0.76 0.88,1 of 18 (2.87)
KISQMVRVGSTHSNSIA,EEAKRAD,QQYHRLPLS,0.42 0.29 0.12 0.51 0.52 0.45,2 of 18 (3.29)
TISQMSTLFSQSINNVA,EVSTREE,QQYDRLPLV,1.33 1.10 1.43 1.41 1.39 1.65,0 of 18
MVNGIMDHLSKQTNNVA,ETVTREE,QQYDRLPLS,1.67 2.43 1.12 0.75 0.83 1.33,1 of 18 (2.74)
KLAMITGLEKVSGNNVA,EMETREK,QQYNRLPLS,0.76 -0.04 0.06 0.37 0.36 0.70,0 of 18
TIGQTLMTGVRNRSNVA,EVSERLN,QQYDRLPLF,1.10 0.88 1.38 1.19 0.82 1.37,3 of 18 (3.17)
TISQMTSVFSQSINNVA,EVSMRES,QQYDRLPLI,1.20 1.02 0.90 1.22 1.32 1.13,2 of 18 (2.86)
MVTQMAMSGMTNKRSVA,NAETRCN,QQYHRLPLI,n.d. 2.32 n.d. 2.75 n.d. n.d.,0 of 18
KISQMIRVGSTHSNSIA,EEATRAK,QQYHRLPLA,2.04 n.d. 2.08 1.70 n.d. 1.42,1 of 18 (2.53)
KLSGLMSSSKFAKDNVA,ENNTREK,QQYERLPLS,0.72 1.29 1.25 0.89 0.68 1.05,0 of 18
MLSEMLHMLGAKKNSIA,DLVMRAN,QQYHRLPLF,0.03 0.84 1.57 -0.11 0.41 0.89,0 of 18
MISHVMNTLTRNGNNVA,DLAEREK,QQYFRLPLS,1.46 0.90 1.35 1.22 1.47 1.04,0 of 18
IVSQLMVWGYHAKNSIA,EAELRLN,QQYDRLPLF,n.d. n.d. n.d. n.d. n.d. 1.41,0 of 18
TLYGLTNSMSKNKDNVA,EMSTREL,QQYDRLPLI,0.95 1.18 1.09 0.61 0.66 1.64,0 of 18
QISMLLNFESYKTNNVA,QMETRVV,QQYDRLPLT,1.46 0.94 0.89 1.52 1.25 1.93,1 of 18 (2.43)
KITMSINLTFQASNNVA,EMATREQ,QQYNRLPLS,1.31 0.98 0.45 1.18 0.85 1.02,0 of 18
KISEQMNFAQFNKQSIA,EVSTRSK,QSYNRLPLS,1.04 1.20 1.14 1.88 1.63 1.45,1 of 18 (2.64)
HLGLSTMLEEYVRNSVA,NNSTREE,QQYDRLPLS,n.d. 2.25 1.79 2.39 n.d. n.d.,0 of 18
IVSQLMLWGKSAKNSIA,EAQTRLN,QQYDRLPLF,1.71 1.83 2.67 1.94 1.79 1.97,0 of 18
MMSQVTGLGMRHRNNVA,QTSTREP,QQYDRLPLI,1.32 1.38 1.09 1.42 1.38 1.31,1 of 18 (4.59)
HITYGMMVHGRHSSSIA,QAETRAK,QQYDRLPLI,1.01 0.98 0.88 1.61 1.12 1.21,0 of 18
MISQMYNMGQFAINSVA,QASLRNE,QQYDRLPLI,1.44 1.32 0.67 0.98 0.94 0.85,2 of 18 (3.20)
IVSQLMLWGMHRKNSIA,EAQTRLN,QQYDRLPLM,n.d. 1.37 0.71 0.76 0.19 0.76,0 of 18
MISQLYNMGTFAINSVA,QAEIRNE,QQYDRLPLI,n.d. 1.70 1.61 n.d. 1.63 n.d.,0 of 18
MFSQMTGLGMKASNSVA,QASTRFE,QQYHRLPLV,0.58 0.49 0.80 0.60 0.71 0.52,2 of 18 (2.25)
HITMGMYVSGRHHSSIA,QAETRAK,QQYDRLPLI,n.d. 2.43 n.d. 1.64 1.92 2.63,0 of 18
KLTGITGLEKVHGNNVA,EMETREK,QQYNRLPLS,0.17 0.76 0.63 0.39 0.49 0.67,1 of 18 (2.31)
KLSMTTEMEHTNRNSVA,ELVTRIS,QQYNRLPLS,0.97 0.54 0.49 0.55 0.43 0.51,1 of 18 (2.05)
HITYGMYVAGRHSSSIA,QAETRAK,QQYDRLPLM,1.13 0.78 0.93 0.87 0.96 1.09,0 of 18
KITGTMRFEQKAKNNIA,EVTTRSK,QQYYRLPLS,1.09 1.15 0.73 1.10 1.17 1.43,1 of 18 (2.42)
KLLQNTGAGYRWAQNVA,HMSTREE,QQYHRLPFV,0.94 0.91 0.93 0.69 0.74 0.97,1 of 18 (3.48)
TIGASLMYGSRNRSNVA,EVSQRLN,QQYDRLPLE,1.51 1.95 1.78 2.74 1.69 2.07,1 of 18 (3.27)
QLSSITGHMQMIKNNVA,EMETREN,QQYDRLPLA,0.91 0.98 0.91 0.92 1.08 1.07,0 of 18
KLSSVTGHLSVEKNNVA,EMETREN,QQYDRLPLA,n.d. n.d. n.d. 1.03 2.06 n.d.,0 of 18
KLSMVTGHMSMAKNNVA,EMETREK,QQYNRLPLA,0.00 0.06 0.01 -0.33 -0.18 0.15,1 of 18 (2.40)
KLSQITGHMSVSKNNVA,EMETREN,QQYDRLPLS,1.21 1.59 1.17 1.12 1.69 1.22,0 of 18
HMSMLTLQGMRHRNSVA,QMTTRVN,QQYDRLPLS,n.d. 0.84 0.85 1.98 1.09 1.21,0 of 18
KLYYNEGTEMFRKDNIA,DNDLRER,QQYDRLPLS,0.93 0.80 0.68 0.54 0.46 0.84,0 of 18
TLSQMSGVEAVKHNNVA,ENSTREN,QQYDRLPLS,2.27 2.45 2.36 2.31 2.57 2.94,2 of 18 (3.97)
TLYGLSMSMSKNKNNVA,EMSTRER,QQYDRLPLQ,0.66 0.40 0.48 0.76 0.80 0.86,0 of 18
KLTMISGLEKVSTNNVA,EMETREK,QQYNRLPLS,0.56 0.69 0.51 0.52 0.68 0.57,2 of 18 (2.60)
HMSMLTLMGMKQRNSVA,QMTMREN,QQYDRLPLM,1.21 0.70 0.74 1.09 0.95 1.48,0 of 18
TIQQMMSLFSQTINNVA,EVSTRLN,QQYDRLPLA,1.17 1.63 2.28 1.91 1.26 1.74,1 of 18 (2.09)
HITYGMMVVGRHSKSIA,QAETRAK,QQYDRLPLA,0.93 1.03 0.68 0.97 2.06 1.55,0 of 18
QLSMITGHVSMSKNNVA,EMETRMN,QQYDRLPLS,0.27 0.37 -0.04 0.40 0.17 0.40,0 of 18
MISNVMNTLTRQGNNVA,DLQEREN,QQYFRLPLS,0.45 0.78 0.44 0.95 1.50 1.26,0 of 18
TIGQTLMIGMRNRSNVA,EVSQRLN,QQYDRLPLL,1.65 2.39 1.61 1.33 2.09 1.63,1 of 18 (2.24)
KLSLVTGHMSMAKNNVA,EMVTREK,QQYNRLPLS,0.67 0.43 0.52 0.12 0.31 0.42,0 of 18
MISQLYNMGSFAINSVA,QASERSE,QQYDRLPLI,1.93 1.92 1.24 2.35 1.45 1.41,1 of 18 (4.43)
MMSQVTGSGTRHRNNVA,QTSTREP,QQYDRLPLI,0.97 0.82 0.51 0.86 1.01 0.63,1 of 18 (3.36)